The results in this text go back to PubChem BioAssay (NCI).

“And” between values parts separate entries of the source, which are not always exact repeats. Equal values may be shown once. The entries are a selection whose mix differs from that of the whole data set. A structure can be active in one record and inactive in another. The source made the active and inactive calls. No stated cut-off is given here; in the data, active means growth inhibition above about 70%; inactive means the rest.

Assay [1] in a line: NCI Yeast Anticancer Drug Screen. Data for the rad50 strain (AID 155).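 Further: 0% = growth of vehicle-only cultures of the same strain.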 The note with it: S. cerevisiae rad50 strain growth inhibition, stronger effect = higher value.
The nature of assay [2]: NCI Yeast Anticancer Drug Screen. Data for the mec2-1 strain (AID 157). The note with it: S. cerevisiae mec2-1 strain, stronger effect = higher value.
Assay [3] in a line: NCI Yeast Anticancer Drug Screen. Data for the sgs1 mgt1 strain (AID 161).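 Further: 0% = growth of cultures given vehicle only.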 The note with it: S. cerevisiae sgs1 mgt1 strain, stronger effect = higher value.
The nature of assay [4]: NCI Yeast Anticancer Drug Screen. Data for the cln2 rad14 strain (AID 165).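 Further: 0% = growth equal to vehicle treated cultures.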 Particulars: S. cerevisiae cln2 rad14 strain, stronger effect = higher value.
The nature of assay [5]: NCI Yeast Anticancer Drug Screen. Data for the bub3 strain (AID 167). Particulars: S. cerevisiae bub3 mutant strain, stronger effect = higher value.
Assay [6] can be described thus: NCI Yeast Anticancer Drug Screen. Data for the mlh1 rad18 strain (AID 175). Particulars: S. cerevisiae mlh1 rad18 strain growth inhibition, stronger effect = higher value.
[7] abbreviates: at 5.0 µM (retest, dose inferred, filed as 0.5).
Where [8] appears, read: at 50.0 µM (retest, dose inferred, filed as 5.0).

With `CN(C)P(=O)(N(C)C)n1c(Nc2ccccc2)nnc1-c1ccccc1`, the growth inhibition was inactive: -15% in assay [1] (at 1.2 µM); inactive: -4% in assay [1] (at 3.7 µM); inactive: 34% in assay [1] (setting [7]); inactive: 35% in assay [1] (at 11.0 µM); active: 95% in assay [1] (at 33.0 µM); inactive: 67% in assay [1] (setting [8]). Besides, the growth inhibition in assay [1] (at 50.0 µM) was active: 90.4%; in assay [1] (at 100.0 µM), active: 93%; in assay [2] (at 1.2 µM) it was inactive: -21%; in assay [2] (at 3.7 µM), inactive: -10%; in assay [2] (setting [7]) it was inactive: 45%; in assay [2] (at 11.0 µM) it was inactive: -2%. Also, the growth inhibition in assay [2] (at 33.0 µM) was active: 97%; in assay [2] (setting [8]), active: 79%; in assay [2] (at 50.0 µM), active: 92%; in assay [2] (at 100.0 µM) it was active: 96%; in assay [3] (setting [7]), inactive: -6%; in assay [3] (setting [8]), active: 98%. The growth inhibition in assay [4] (setting [7]) was active: 74%; in assay [4] (setting [8]) it was active: 99%; in assay [5] (at 1.2 µM), inactive: 8%; in assay [5] (at 3.7 µM) it was inactive: 27%; in assay [5] (setting [7]) it was inactive: 34%; in assay [5] (at 11.0 µM), inactive: 15%. Also, the growth inhibition was active: 97% in assay [5] (at 33.0 µM); active: 98% in assay [5] (setting [8]); active: 95% in assay [5] (at 100.0 µM); inactive: 36% in assay [6] (setting [7]); inactive: 56% in assay [6] (setting [8]); active: 90.3% in assay [6] (at 50.0 µM).
`O=[P+](O)Oc1ccccc1`: the growth inhibition in assay [1] (setting [7]) is inactive: -148%; in assay [1] (setting [8]), inactive: -105%; in assay [1] (at 50.0 µM) it was inactive: 3% and inactive: 7.65%; in assay [2] (setting [7]), inactive: -46%; in assay [2] (setting [8]), inactive: -47%; in assay [2] (at 50.0 µM), inactive: -0.25% and inactive: -32.6%. In addition, the growth inhibition in assay [3] (setting [7]) is inactive: -58%; in assay [3] (setting [8]), inactive: -46%; in assay [3] (at 50.0 µM), inactive: 10.8% and inactive: -16.4%; in assay [4] (setting [7]), inactive: -55%; in assay [4] (setting [8]), inactive: -56%; in assay [4] (at 50.0 µM), inactive: 14.1% and inactive: 1%. Also, the growth inhibition in assay [5] (setting [7]) is inactive: -65%; in assay [5] (setting [8]) it was inactive: -74%; in assay [5] (at 50.0 µM), inactive: -0.3% and inactive: 4.45%; in assay [6] (setting [7]) it was inactive: -140%; in assay [6] (setting [8]), inactive: -92%; in assay [6] (at 50.0 µM), inactive: 3.3% and inactive: -16.7%.
In the case of `CCN(CCNCCCNCCSP(=O)(O)O)c1cccc(C)c1`, the growth inhibition in assay [1] (setting [7]) is inactive: 3%; in assay [1] (setting [8]), active: 96%; in assay [1] (at 50.0 µM) it was inactive: 9.85%; in assay [2] (setting [7]) it was inactive: -7%; in assay [2] (setting [8]) it was active: 98%; in assay [2] (at 50.0 µM) it was inactive: -7.95%. Further, the growth inhibition was inactive: -6% in assay [3] (setting [7]); active: 98% in assay [3] (setting [8]); inactive: 21.8% in assay [3] (at 50.0 µM); inactive: -7% in assay [4] (setting [7]); active: 89% in assay [4] (setting [8]); inactive: -1.85% in assay [4] (at 50.0 µM). Moreover, the growth inhibition was inactive: -6% in assay [5] (setting [7]); active: 97% in assay [5] (setting [8]); inactive: 34.9% in assay [5] (at 50.0 µM); inactive: 17% in assay [6] (setting [7]); active: 98% in assay [6] (setting [8]); active: 75.4% in assay [6] (at 50.0 µM).
Take `Cc1cc([N+](=O)[O-])cc([N+](=O)[O-])c1O`: the growth inhibition in assay [1] (setting [7]) is inactive: 0%; in assay [1] (setting [8]) it was active: 85%; in assay [1] (at 50.0 µM), inactive: 48.8% and active: 79.4%; in assay [2] (setting [7]), inactive: 6%; in assay [2] (setting [8]) it was active: 87%; in assay [2] (at 50.0 µM), inactive: 7.8% and active: 87%. The growth inhibition was inactive: 0% in assay [3] (setting [7]); active: 91% in assay [3] (setting [8]); inactive: 56% and active: 85.3% in assay [3] (at 50.0 µM); inactive: 7% in assay [4] (setting [7]); active: 94% in assay [4] (setting [8]); inactive: 20.9% and inactive: 62.5% in assay [4] (at 50.0 µM). For the same compound, the growth inhibition in assay [5] (setting [7]) is inactive: 0%; in assay [5] (setting [8]), active: 94%; in assay [5] (at 50.0 µM), inactive: 30.6% and active: 83.5%; in assay [6] (setting [7]) it was inactive: 0%; in assay [6] (setting [8]), active: 86%; in assay [6] (at 50.0 µM) it was inactive: 63.6% and active: 83.3%.
As for `[N-]=[N+]=NC(=O)c1cccc([N+](=O)[O-])c1`, the growth inhibition in assay [1] (setting [7]) was inactive: 14%; in assay [1] (setting [8]) it was active: 83%; in assay [1] (at 50.0 µM), active: 80.7%; in assay [2] (setting [7]) it was inactive: 0%; in assay [2] (setting [8]), inactive: 51%; in assay [2] (at 50.0 µM), inactive: 56%. Further, the growth inhibition in assay [3] (setting [7]) was inactive: 0%; in assay [3] (setting [8]) it was inactive: 55%; in assay [3] (at 50.0 µM) it was inactive: 39.5%; in assay [4] (setting [7]), inactive: -4%; in assay [4] (setting [8]), inactive: 36%; in assay [4] (at 50.0 µM) it was inactive: 23.5%. Also, the growth inhibition in assay [5] (setting [7]) was inactive: 4%; in assay [5] (setting [8]), active: 75%; in assay [5] (at 50.0 µM), inactive: 37.9%; in assay [6] (setting [7]) it was inactive: 5%; in assay [6] (setting [8]), active: 76%; in assay [6] (at 50.0 µM) it was inactive: 28%.
In the case of `O=C(c1cc([N+](=O)[O-])cc([N+](=O)[O-])c1)c1cc([N+](=O)[O-])cc([N+](=O)[O-])c1`, the growth inhibition in assay [1] (setting [7]) was inactive: 12%; in assay [1] (setting [8]), active: 94%; in assay [1] (at 50.0 µM), inactive: 13.4%; in assay [2] (setting [7]), inactive: 13%; in assay [2] (setting [8]) it was active: 97%; in assay [2] (at 50.0 µM) it was inactive: 31.6%. In addition, the growth inhibition was inactive: 12% in assay [3] (setting [7]); active: 97% in assay [3] (setting [8]); inactive: 53.4% in assay [3] (at 50.0 µM); inactive: -2% in assay [4] (setting [7]); active: 93% in assay [4] (setting [8]); inactive: 0.45% in assay [4] (at 50.0 µM). Besides, the growth inhibition in assay [5] (setting [7]) was inactive: 17%; in assay [5] (setting [8]), active: 94%; in assay [5] (at 50.0 µM) it was inactive: 18.4%; in assay [6] (setting [7]) it was inactive: 14%; in assay [6] (setting [8]), active: 95%; in assay [6] (at 50.0 µM), inactive: 46.8%.
`Cc1ccc(N2CC=C(c3ccc(Cl)cc3Cl)OP2(=O)Cl)cc1` (stereo unspecified): the growth inhibition in assay [1] (setting [7]) was inactive: 8%; in assay [1] (setting [8]), active: 97%; in assay [1] (at 50.0 µM), active: 96.5%; in assay [2] (setting [7]), inactive: -13%; in assay [2] (setting [8]), active: 88%; in assay [2] (at 50.0 µM), active: 98.1%. In addition, the growth inhibition in assay [3] (setting [7]) is inactive: 3%; in assay [3] (setting [8]) it was active: 94%; in assay [3] (at 50.0 µM), active: 95%; in assay [4] (setting [7]), inactive: -5%; in assay [4] (setting [8]), active: 85%; in assay [4] (at 50.0 µM), active: 90.4%. Besides, the growth inhibition in assay [5] (setting [7]) is inactive: -6%; in assay [5] (setting [8]) it was active: 93%; in assay [5] (at 50.0 µM), active: 96.3%; in assay [6] (setting [7]), inactive: 1%; in assay [6] (setting [8]), active: 94%; in assay [6] (at 50.0 µM) it was active: 97.8%.
Regarding `COc1cc([N+](=O)[O-])c([N+](=O)[O-])cc1N`, the growth inhibition in assay [1] (setting [7]) is inactive: -22%; in assay [1] (setting [8]), inactive: 3%; in assay [1] (at 50.0 µM), inactive: 60.2%; in assay [2] (setting [7]), inactive: 2%; in assay [2] (setting [8]) it was inactive: 2%; in assay [2] (at 50.0 µM), active: 71.8%. Further, the growth inhibition in assay [3] (setting [7]) is inactive: -11%; in assay [3] (setting [8]), inactive: -4%; in assay [3] (at 50.0 µM) it was inactive: 57.5%; in assay [4] (setting [7]), inactive: -33%; in assay [4] (setting [8]), inactive: -19%; in assay [4] (at 50.0 µM) it was inactive: 5.45%. The growth inhibition was inactive: 0% in assay [5] (setting [7]); inactive: 5% in assay [5] (setting [8]); inactive: 38.1% in assay [5] (at 50.0 µM); inactive: -8% in assay [6] (setting [7]); inactive: -4% in assay [6] (setting [8]); inactive: 45% in assay [6] (at 50.0 µM).
